Experimental data published in ChEMBL document CHEMBL1122768.
This is a selection: effects in other tests are not listed, and their absence says nothing.

Assay: Partition coefficient (logP)
Details: octanol/water

## Cl.O=C1CCC2=C(CCN(CCc3ccccc3)C2)N1c1ccccc1
  logP: 2.68
